Among the data in PubChem BioAssay AID540333 (Southern Research Specialized Biocontainment Screening …, 2011) are CPE inhibition values, retold here.

Only a part is listed here, and it is no random draw. Some tests of the compounds listed are not included; inactive here does not mean inactive elsewhere. Active and inactive are the calls of the source. Rule as the data show it: active = CPE inhibition mostly above about 9.1% (no sharp cut-off); inactive = mostly below about 7.2%.

This assay in a line: antivirals protecting cells from dengue CPE – CPE readout, HTS (AID 540333). Conditions: Dengue virus CPE inhibition in host cells; at 20 µM; stronger effect = higher value.
With `CN(C)C1CCCC1OC(=O)C(O)(c1ccccc1)c1ccccc1` (stereo unspecified), the CPE inhibition is inactive: 0.02%.
